scFv variants of Ab-91 (heavy chain) against a SARS-CoV-2 spike peptide

Reference: Engelhart et al. 2022, doi:10.1038/s41597-022-01779-4. File: FLAb, binding data.

Antigen: PDVDLGDISGINAS, a 14-residue peptide of the SARS-CoV-2 spike HR2 region.

The variants keep the light chain, the linker and the frameworks of Ab-91 (scFv order VL, the linker GGGGSGGGGSGGGGS, VH).
VL: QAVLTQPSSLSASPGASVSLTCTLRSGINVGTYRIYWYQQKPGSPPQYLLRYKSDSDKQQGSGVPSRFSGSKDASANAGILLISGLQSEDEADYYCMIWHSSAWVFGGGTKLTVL
VH: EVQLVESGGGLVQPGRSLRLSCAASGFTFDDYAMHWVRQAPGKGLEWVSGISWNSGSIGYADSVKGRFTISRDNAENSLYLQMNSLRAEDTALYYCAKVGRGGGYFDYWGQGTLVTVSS

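The starting antibody came from a phage panning campaign against this peptide. AAYL51 was designed without a model: most single CDR substitutions and a random sample of double and triple ones. The scFvs were displayed on barcoded MATa yeast, the peptide on MATalpha yeast. The frequency of each diploid, read from paired DNA barcodes, reflects how well the two displayed proteins bind. Scores were corrected for input abundance and mapped to Kd with protein pairs of known affinity run in the same pool. Mating was done three times.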

Each variant is given by its three heavy chain CDRs, as the data file delimits them; those of the parent are GFTFDDYAMH, GISWNSGSIGYADSVK, VGRGGGYFDY. Every variant below is changed at I58 of the VH (sequential numbering). Values are log10 of the apparent Kd in nM; lower means stronger binding. Averages over replicates are reported, and they cover detected replicates only. "ND" means that the variant was in the library but no mating with the target was seen in that replicate; the authors take this as a sign of poor binding, and no number exists. Three control strains display no target. For library AAYL51, 21% of the pairings with them gave a signal, with a median of 4.54 and one signal in twenty below 3.26, so weak values seen in few replicates may be background. The control count says in how many pairings with the empty strains this scFv gave a signal. In this assay the parent's reference entry averaged 1.86; its copy inside this library read 0.88.

Variant GFTFDDYAMH / GISWNSGSLGYADSAK / VGRGHGYFDY showed 3.99, 3.43, 3.59 (mean 3.67; controls 2 of 9).
Variant GHTFDDRAMH / GISWNSGSKGYADSVK / VGRGGGYFDY showed ND, ND, ND (controls 1 of 9).
Variant GFTFDDYAMH / GISWNSGSWGYADSVK / VGYGGGYFDY showed 2.84, 3.09, 3.06 (mean 3.00; controls 4 of 9).
Variant GFPFDDYAMH / GISWNSGSQGYADSVK / DGRGGGYFDY showed ND, ND, ND (controls 0 of 9).
Variant GFTFDDYAMH / GISWNSGSHGYADSVK / VGRGGQQFDY showed 0.80, 0.72, 1.51 (mean 1.01; controls 0 of 9).
Variant GFTFDDYAMH / GISWNSGSPGYADSVK / VGRGGGYARY showed ND, ND, ND (controls 0 of 9).
Variant GFTFFDYAMH / GISWQSGSVGYADSVK / VGRGGGYFDY showed ND, 2.58, 2.79 (mean 2.68; controls 3 of 9).
Variant GFTFDDYAMH / GISWNSGSKGYADSVC / VGCGGGYFDY showed 1.93, 2.21, 1.83 (mean 1.99; controls 0 of 9).
Variant GFTSDDYAMH / GISWNSGSPGYANSVK / VGRGGGYFDY showed 3.92, 4.95, 4.63 (mean 4.50; controls 2 of 9).
Variant GFTFDDYAVH / GISWNSGSQPYADSVK / VGRGGGYFDY showed 4.72, ND, ND (controls 0 of 9).
Variant GFTFDDYAMA / GISWNSGSCGYADTVK / VGRGGGYFDY showed 6.70, 5.39, 5.85 (mean 5.98; controls 6 of 9).
Variant GFTFDDYAMH / GVSWNSGSAGYTDSVK / VGRGGGYFDY showed 3.07, ND, ND (controls 0 of 9).
Variant GFTFDDYAMH / GISWNSGITGYADSVK / VGRGGWYFDY showed 1.39, 1.46, 0.93 (mean 1.26; controls 2 of 9).
Variant GFTFDDYAFH / GISWNSGSSGYALSVK / VGRGGGYFDY showed 4.87, 4.55, 5.54 (mean 4.98; controls 3 of 9).
Variant GFTFDDYAMH / GISWNSGSWGYADSVK / VGRYGGYFDH showed 4.21, 3.45, 4.45 (mean 4.04; controls 6 of 9).
Variant GFTFLDYAMH / GISWNSGSGLYADSVK / VGRGGGYFDY showed ND, ND, ND (controls 0 of 9).
Variant GATFDDYAMH / GISWNSGSMGYADDVK / VGRGGGYFDY showed ND, ND, ND (controls 0 of 9).
Variant GFTFDDYAMH / GISWNSGSDGEADSVK / VGRGGKYFDY showed 4.00, ND, ND (controls 1 of 9).
Variant GFTFDDYTKH / GISWNSGSGGYADSVK / VGRGGGYFDY showed ND, ND, ND (controls 1 of 9).
Variant GFTFDDYAMH / GISWNSPSTGYADSVK / VGRGGGYFDY showed ND, 4.97, 4.84 (mean 4.90; controls 1 of 9).
Variant GFTFDDYAMH / GISWNSGSMGTADSVK / VGRGGGYFDY showed 3.05, 2.76, 2.48 (mean 2.76; controls 1 of 9).
Variant GFTHDDYAMH / GISWNSGSKGYADSVK / VGRGGFYFDY showed ND, 4.88, 4.85 (mean 4.87; controls 1 of 9).
Variant GFCFDDYAMG / GISWNSGSCGYADSVK / VGRGGGYFDY showed ND, 2.95, ND (controls 1 of 9).
Variant GFTHDDYAMH / GISWNSGSQGYARSVK / VGRGGGYFDY showed ND, ND, ND (controls 1 of 9).
Variant GFGFDDYAMH / GISWNKGSRGYADSVK / VGRGGGYFDY showed ND, ND, ND (controls 1 of 9).
Variant CFTFDDYAMH / GISWNSGSPGNADSVK / VGRGGGYFDY showed ND, 3.67, ND (controls 1 of 9).
Variant GFTFDDYAMH / GISWNSGSCGYADSVK / WGRGGGYGDY showed 3.47, 3.00, 3.09 (mean 3.19; controls 1 of 9).
Variant GFTFDDYAMP / GISWNSGSRGYADSVK / VGRGGGYKDY showed ND, 4.68, ND (controls 1 of 9).
Variant GFTFDDYAMH / GISWNSGSAGYADSVN / VGRGGGYFDV showed 1.23, 1.27, 0.70 (mean 1.07; controls 1 of 9).
Variant GPTFDDYAMH / GISWNSGSFGYADSYK / VGRGGGYFDY showed ND, ND, ND (controls 0 of 9).
Variant GFTFDDYAMH / GISWNSGSFGYADSVW / VGRGGGYFDY showed 2.61, 2.77, 2.09 (mean 2.49; controls 1 of 9).
Variant GFTFDDYFMH / GISWNSGSSGYADSVK / VGRGGPYFDY showed ND, ND, ND (controls 4 of 9).
Variant GFTFDDYAML / GISWNKGSAGYADSVK / VGRGGGYFDY showed ND, ND, ND (controls 0 of 9).
Variant GFTLDDYAMH / GISWNSGSNGYADSVK / VGRGLGYFDY showed 4.49, 4.87, ND (mean 4.68; controls 2 of 9).
Variant GFTFDDYAMH / GISWNSGSWGYADSVK / VGRGGGYFDY showed 2.57, 3.27, 2.31 (mean 2.71; controls 2 of 9).
Variant GFTFDDYAMH / GISWNSGSMGYADSVK / DGRGGGDFDY showed 1.60, 1.50, 1.10 (mean 1.40; controls 5 of 9).

Excerpt, the first 3 entries:

CDR-H1	CDR-H2	CDR-H3	replicates, log10 nM	mean log10 Kd (nM)	signal with controls
GFTFDDYAMH	GISWNSGSLGYADSAK	VGRGHGYFDY	3.99, 3.43, 3.59	3.67	2/9
GHTFDDRAMH	GISWNSGSKGYADSVK	VGRGGGYFDY	ND, ND, ND	ND	1/9
GFTFDDYAMH	GISWNSGSWGYADSVK	VGYGGGYFDY	2.84, 3.09, 3.06	3.00	4/9